These results are taken from PMC13181292, “Receptor homodimerization significantly prolongs the lifetime of ligand-induced cross-linking of CLEC-2 but not GPVI” (Blood Vessels, Thrombosis & Hemostasis, 2026).

This data set deals with the molecule itself. The data set is described as follows: SPR; the monomeric recombinant domain flowed over an immobilized surface of itself; Biacore T200, kinetic analysis with a global fitting model; n = 3. For orientation: Surface plasmon resonance follows binding to a sensor surface in real time, without labels.

B1: monomeric C-type lectin-like domain of CLEC-2 (extracellular domain residues 55-229) (domain or fragment, UniProt Q9P126 55-229, looked up)
chain: SVMQRNYLQGENENRTGTLQQLAKRFCQYVVKQSELKGTFKGHKCSPCDTNWRYYGDSCYGFFRHNLTWEESKQYCTDMNATLLKIDNRNIVEYIKARTHLIRWVGLSRQKSNEVWKWEDGSVISENMFEFLEDGKGNMNCAYFHNGKMHPTFCENKHYLMCERKAGMTKVDQLP
notes: C-type lectin-like receptor 2 (CLEC-2), extracellular domain residues 55-229 with the C-type lectin-like domain; recombinant, monomeric (no Fc); also called recombinant monomeric CLEC-2; monovalent C-type lectin-like domain of CLEC-2
As for B1, the Kd (commonly the constant that tells how readily two partners part at equilibrium) amounted to 18.5 µM.
